Measured values published in publication doi:10.1101/2024.04.25.591105.

Sequences of proteins named here, by UniProt entry; tags and fusion partners are left off. A change or cut given only in a name is not applied to a line headed by its entry.
UniProt P31947: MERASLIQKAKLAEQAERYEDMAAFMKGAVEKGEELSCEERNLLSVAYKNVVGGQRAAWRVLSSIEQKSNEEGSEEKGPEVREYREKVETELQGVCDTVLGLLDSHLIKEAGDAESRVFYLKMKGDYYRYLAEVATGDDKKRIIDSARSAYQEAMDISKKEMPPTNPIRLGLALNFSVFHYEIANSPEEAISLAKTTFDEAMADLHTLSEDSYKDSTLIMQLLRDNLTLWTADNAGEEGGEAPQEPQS

Target: FAM-labeled ERα peptide, 5-FAM-AEGFPA{pT}V-COOH (8mer)
Assay: fluorescence polarisation

EC50 of the stabiliser 163: 4000 nM | EC50 of the stabiliser FC-A: 421 nM | EC50 of the stabiliser FC-NAc: 15 nM
Substance: 14-3-3σ FL protein (from UniProt P31947 1-248) (natural protein)
